According to patent publication US20260218132A1, “METHODS AND MATERIALS FOR GENERATING STEM CELL-DERIVED ENDOCRINE CELL TYPES” (Mayo Foundation for Medical Education and Research, priority 2023, published 2026):

Tested on: pre-delta cells
Assay: Differentiation of pre-delta cells to SCδ cells (stage 6), flow cytometry and immunohistochemistry
Type: cell-based, human
Conditions: stage 6, flow cytometry

C=C[C@@]1(C)CC(=O)[C@]2(O)[C@@]3(C)[C@@H](O)CCC(C)(C)[C@@H]3[C@H](O)[C@H](OC(C)=O)[C@@]2(C)O1 [forskolin, [(3R,4aR,5S,6S,6aS,10S,10aR,10bS)-3-ethenyl-6,10,10b-trihydroxy-3,4a,7,7,10a-pentamethyl-1-oxo-5,6,6a,8,9,10-hexahydro-2H-benzo[f]chromen-5-yl]acetate]
SST^+GCG^−INS^+ cells: 26.76±1.33%
total glucagon positive cells: 19.92±2.29%
total somatostatin positive cells: 58.27±1.71%
